The target of one assay is D(2) dopamine receptor (Rattus norvegicus, UniProt P61169). Briefly: Displacement of [3H]spiperone from rat D2 receptor expressed in HEK293 cells. It counts as cell-based. (In a radioligand displacement assay an active substance lowers the binding of a labelled ligand.)
The species named for a further assay is Rattus norvegicus. Nature of the assay: Selectivity ratio for Ki for rat D2 receptor to Ki for rat D3 receptor.

Protein sequences, listed by entry. Tags and fused reporters are not part of them.
UniProt P61169, whole entry: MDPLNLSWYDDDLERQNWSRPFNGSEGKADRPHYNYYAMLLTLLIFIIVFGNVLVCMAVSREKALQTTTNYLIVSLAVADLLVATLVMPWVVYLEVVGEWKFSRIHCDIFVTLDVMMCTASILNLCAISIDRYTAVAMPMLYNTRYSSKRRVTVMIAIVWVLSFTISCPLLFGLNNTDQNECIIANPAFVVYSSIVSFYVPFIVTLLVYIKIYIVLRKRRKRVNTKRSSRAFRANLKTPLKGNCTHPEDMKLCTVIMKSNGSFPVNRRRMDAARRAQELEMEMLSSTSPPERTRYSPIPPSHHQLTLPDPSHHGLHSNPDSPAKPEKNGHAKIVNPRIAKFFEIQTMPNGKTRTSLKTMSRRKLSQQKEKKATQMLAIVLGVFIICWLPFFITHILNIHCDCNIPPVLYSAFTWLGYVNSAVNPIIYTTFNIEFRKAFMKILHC

The record followed here is ChEMBL document CHEMBL1250455, “Further delineation of hydrophobic binding sites in dopamine D(2)/D(3) receptors for N-4 substituents on the piperazine ring of the hybrid template 5/7-{[2-(4-aryl-piperazin-1-yl)-ethyl]-propyl-amino}-5,6,7,8-tetrahydro-naphthalen-2-ol” (Bioorg Med Chem, 2010).

The term Ki denotes the dissociation constant of the complex between target and ligand, obtained from inhibition or displacement. In turn, `CCCN(CCN1CCN(c2ccc(-c3ccncc3)cc2)CC1)C1CCc2c(O)cccc2C1` (single isomer, unassigned; (-)) showed a Ki at D(2) dopamine receptor of 13.2 nM. In the assay filed under Rattus norvegicus, the Ratio Ki was determined as 8.63.
